In this experiment the target is T1, Ribosyldihydronicotinamide dehydrogenase [quinone] (Homo sapiens, UniProt P16083).
T1 sequence (P16083 whole entry): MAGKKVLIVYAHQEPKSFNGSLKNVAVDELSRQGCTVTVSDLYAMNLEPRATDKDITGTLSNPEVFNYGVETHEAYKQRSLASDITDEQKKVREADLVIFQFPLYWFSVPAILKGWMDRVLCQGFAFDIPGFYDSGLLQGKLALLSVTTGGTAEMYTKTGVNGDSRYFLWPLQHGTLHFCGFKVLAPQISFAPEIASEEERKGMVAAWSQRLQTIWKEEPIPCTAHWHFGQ
In words: Inhibition of recombinant human NQO2 expressed in Escherichia coli BL21 (DE3) using DCPIP as substrate.
As for `CCN(C)CCCC(C)Nc1cc(-c2ccccc2)nc2cc(OC)ccc12` (stereo not drawn), the 50% inhibitory concentration (IC50) (as a rule, the concentration at which inhibition is half-maximal) turned out to be 550 nM.

On to `NCCNC(=O)c1cc([N+](=O)[O-])cc2ccc(-c3ccccc3)nc12`, for which the concentration for half-maximal inhibition (IC50) turned out to be 40 nM.

In the case of `NCCNC(=O)c1cccc2nc(-c3ccc(-c4ccccc4)cc3)ccc12`, the IC50 was 70 nM.

The values above are taken from ChEMBL document CHEMBL4359921, “Discovery of potent 4-aminoquinoline hydrazone inhibitors of NRH:quinoneoxidoreductase-2 (NQO2)” (Eur J Med Chem, 2019).
